Assay results from PubChem BioAssay AID588478 (ICCB-Longwood Screening Facility, Harvard Medical School, 2011).
The list shows a part of the results, in another mix than the full data. Active and inactive are the calls of the source.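 How the source made its calls: active means mean inhibition over replicate wells above about 20% (limit read from the data); inactive means the rest.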

The chains behind the UniProt entries cited, without tags or fusion partners.
UniProt Q9Y5K5, whole entry, looked up: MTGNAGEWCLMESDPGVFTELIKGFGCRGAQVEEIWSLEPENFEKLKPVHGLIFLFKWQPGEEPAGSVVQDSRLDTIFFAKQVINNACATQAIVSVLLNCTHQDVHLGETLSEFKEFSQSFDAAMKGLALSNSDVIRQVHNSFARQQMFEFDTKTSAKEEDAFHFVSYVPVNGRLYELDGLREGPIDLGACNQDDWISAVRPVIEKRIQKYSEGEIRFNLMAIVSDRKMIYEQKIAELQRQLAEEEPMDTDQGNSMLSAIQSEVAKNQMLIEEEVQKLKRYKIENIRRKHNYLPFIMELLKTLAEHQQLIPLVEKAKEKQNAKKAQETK

molecular target: Ubiquitin carboxyl-terminal hydrolase isozyme L5 (Homo sapiens) (UniProt Q9Y5K5); assay: inhibitors of human UCH37 deubiquitinase, primary screen, biochemical, Ub-AMC cleavage, fluorescence (AID 588478); conditions: purified proteasome/UCH37, Ub-AMC cleavage fluorescence; active compounds read high; concentration not given here;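 further: 0% = compound-free wells with enzyme and 100% = wells lacking proteasome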
Procedure, shortened: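 assay system = human UCH37 enzyme supplied as purified proteasome complex | amount = proteasome at 0.15 nM in the dispensed enzyme solution | schedule = 30 min compound-proteasome preincubation then 25 min substrate reaction, room temperature | measured by = fluorescence, ex 355 nm, em 460 nm | benchmarks = no-proteasome wells (full inhibition) and compound-free wells (no inhibition)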

Row | SMILES | inhibition
1 | CC(=O)Nc1ccc(Oc2c([N+](=O)[O-])cc([N+](=O)[O-])cc2[N+](=O)[O-])cc1 | active: 20.7%
2 | O=[N+]([O-])c1ccc(-c2cc([N+](=O)[O-])c(O)c([N+](=O)[O-])c2)cc1 | active: 20.5%
